79 substances from PMC12102759 (Protein Science : A Publication of the Protein Society, 2025) can be followed below.

Sequences of proteins named here, by UniProt entry; tags and fusion partners are left off. Residues count along the entry.
UniProt Q9Y490, 309-401: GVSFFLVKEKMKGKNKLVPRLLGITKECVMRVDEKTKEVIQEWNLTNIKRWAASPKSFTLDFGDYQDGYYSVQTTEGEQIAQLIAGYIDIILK

The assay deals with TLN1 PTB (Homo sapiens, UniProt Q9Y490). In kind it is binding.

On to TDERSWVYSPLHYS(averaged) W6W, for which the “DMS-derived PSSM value, averaged over the two overlapping peptides” value is listed as 0.7004.

“TDERSWVYSPLHYS(averaged) W6Y (TDERSYVYSPLHYS)”: the “DMS-derived PSSM value, averaged over the two overlapping peptides” value is 0.002419.

On to “TDERSWVYSPLHYS(averaged) Y8A (TDERSWVASPLHYS)”, for which the “DMS-derived PSSM value, averaged over the two overlapping peptides” value came out at 0.02105.

As for “TDERSWVYSPLHYS(averaged) Y8D (TDERSWVDSPLHYS)”, the “DMS-derived PSSM value, averaged over the two overlapping peptides” value is 0.03253.

In the case of “TDERSWVYSPLHYS(averaged) Y8E (TDERSWVESPLHYS)”, the “DMS-derived PSSM value, averaged over the two overlapping peptides” value is reported as 0.01034.

As to “TDERSWVYSPLHYS(averaged) Y8F (TDERSWVFSPLHYS)”, the “DMS-derived PSSM value, averaged over the two overlapping peptides” value was determined as 0.05465.

On to “TDERSWVYSPLHYS(averaged) Y8G (TDERSWVGSPLHYS)”, for which the “DMS-derived PSSM value, averaged over the two overlapping peptides” value amounted to 0.005376.

For “TDERSWVYSPLHYS(averaged) Y8H (TDERSWVHSPLHYS)”, the “DMS-derived PSSM value, averaged over the two overlapping peptides” value is 0.06096.

For the substance “TDERSWVYSPLHYS(averaged) Y8I (TDERSWVISPLHYS)”, the “DMS-derived PSSM value, averaged over the two overlapping peptides” value was determined as 0.0304.

“TDERSWVYSPLHYS(averaged) Y8K (TDERSWVKSPLHYS)”: the “DMS-derived PSSM value, averaged over the two overlapping peptides” value is recorded as 0.05157.

“TDERSWVYSPLHYS(averaged) Y8L (TDERSWVLSPLHYS)”: the “DMS-derived PSSM value, averaged over the two overlapping peptides” value was 0.07793.

For the substance “TDERSWVYSPLHYS(averaged) Y8M (TDERSWVMSPLHYS)”, the “DMS-derived PSSM value, averaged over the two overlapping peptides” value is 0.03131.

Consider “TDERSWVYSPLHYS(averaged) Y8N (TDERSWVNSPLHYS)”, for which the “DMS-derived PSSM value, averaged over the two overlapping peptides” value is reported as 0.04735.

“TDERSWVYSPLHYS(averaged) Y8P (TDERSWVPSPLHYS)”: the “DMS-derived PSSM value, averaged over the two overlapping peptides” value was 0.02017.

Turning to “TDERSWVYSPLHYS(averaged) Y8Q (TDERSWVQSPLHYS)”, the “DMS-derived PSSM value, averaged over the two overlapping peptides” value turned out to be 0.03811.

For “TDERSWVYSPLHYS(averaged) Y8R (TDERSWVRSPLHYS)”, the “DMS-derived PSSM value, averaged over the two overlapping peptides” value came out at 0.1139.

“TDERSWVYSPLHYS(averaged) Y8S (TDERSWVSSPLHYS)”: the “DMS-derived PSSM value, averaged over the two overlapping peptides” value amounted to 0.1506.

As for “TDERSWVYSPLHYS(averaged) Y8T (TDERSWVTSPLHYS)”, the “DMS-derived PSSM value, averaged over the two overlapping peptides” value worked out at 0.1088.

Turning to “TDERSWVYSPLHYS(averaged) Y8V (TDERSWVVSPLHYS)”, the “DMS-derived PSSM value, averaged over the two overlapping peptides” value was 0.08002.

In the case of “TDERSWVYSPLHYS(averaged) Y8W (TDERSWVWSPLHYS)”, the “DMS-derived PSSM value, averaged over the two overlapping peptides” value was found to be 0.02327.

Turning to TDERSWVYSPLHYS(averaged) Y8Y, the “DMS-derived PSSM value, averaged over the two overlapping peptides” value was found to be 0.04173.

Consider “TDERSWVYSPLHYS(averaged) Y13A (TDERSWVYSPLHAS)”, for which the “DMS-derived PSSM value, averaged over the two overlapping peptides” value stood at 0.04569.

With “TDERSWVYSPLHYS(averaged) Y13D (TDERSWVYSPLHDS)”, the “DMS-derived PSSM value, averaged over the two overlapping peptides” value was 0.1958.

For the substance “TDERSWVYSPLHYS(averaged) Y13E (TDERSWVYSPLHES)”, the “DMS-derived PSSM value, averaged over the two overlapping peptides” value is listed as 0.02565.

With “TDERSWVYSPLHYS(averaged) Y13F (TDERSWVYSPLHFS)”, the “DMS-derived PSSM value, averaged over the two overlapping peptides” value stood at 0.1157.

On to “TDERSWVYSPLHYS(averaged) Y13G (TDERSWVYSPLHGS)”, for which the “DMS-derived PSSM value, averaged over the two overlapping peptides” value is 0.03896.

“TDERSWVYSPLHYS(averaged) Y13H (TDERSWVYSPLHHS)”: the “DMS-derived PSSM value, averaged over the two overlapping peptides” value came to 0.03552.

As to “TDERSWVYSPLHYS(averaged) Y13I (TDERSWVYSPLHIS)”, the “DMS-derived PSSM value, averaged over the two overlapping peptides” value amounted to 0.08264.

“TDERSWVYSPLHYS(averaged) Y13K (TDERSWVYSPLHKS)”: the “DMS-derived PSSM value, averaged over the two overlapping peptides” value was 0.05868.

“TDERSWVYSPLHYS(averaged) Y13L (TDERSWVYSPLHLS)”: the “DMS-derived PSSM value, averaged over the two overlapping peptides” value turned out to be 0.01823.

In the case of “TDERSWVYSPLHYS(averaged) Y13M (TDERSWVYSPLHMS)”, the “DMS-derived PSSM value, averaged over the two overlapping peptides” value stood at 0.0194.

Take “TDERSWVYSPLHYS(averaged) Y13N (TDERSWVYSPLHNS)”: the “DMS-derived PSSM value, averaged over the two overlapping peptides” value stood at 0.04146.

With “TDERSWVYSPLHYS(averaged) Y13P (TDERSWVYSPLHPS)”, the “DMS-derived PSSM value, averaged over the two overlapping peptides” value turned out to be 0.02082.

In the case of “TDERSWVYSPLHYS(averaged) Y13Q (TDERSWVYSPLHQS)”, the “DMS-derived PSSM value, averaged over the two overlapping peptides” value is 0.02841.

Regarding “TDERSWVYSPLHYS(averaged) Y13R (TDERSWVYSPLHRS)”, the “DMS-derived PSSM value, averaged over the two overlapping peptides” value was determined as 0.004782.

For “TDERSWVYSPLHYS(averaged) Y13S (TDERSWVYSPLHSS)”, the “DMS-derived PSSM value, averaged over the two overlapping peptides” value was determined as 0.09287.

With “TDERSWVYSPLHYS(averaged) Y13T (TDERSWVYSPLHTS)”, the “DMS-derived PSSM value, averaged over the two overlapping peptides” value came to 0.02134.

Turning to “TDERSWVYSPLHYS(averaged) Y13V (TDERSWVYSPLHVS)”, the “DMS-derived PSSM value, averaged over the two overlapping peptides” value is given as 0.02157.

With “TDERSWVYSPLHYS(averaged) Y13W (TDERSWVYSPLHWS)”, the “DMS-derived PSSM value, averaged over the two overlapping peptides” value was 0.05954.

As for TDERSWVYSPLHYS(averaged) Y13Y, the “DMS-derived PSSM value, averaged over the two overlapping peptides” value was found to be 0.07288.

With TDERSWVYSPLHYSAQ A15A, the “DMS-derived PSSM value of the single-substitution variant” value is recorded as 0.2053.

In the case of “TDERSWVYSPLHYSAQ A15D (TDERSWVYSPLHYSDQ)”, the “DMS-derived PSSM value of the single-substitution variant” value amounted to 0.07874.

For the substance “TDERSWVYSPLHYSAQ A15E (TDERSWVYSPLHYSEQ)”, the “DMS-derived PSSM value of the single-substitution variant” value came to 0.1052.

As to “TDERSWVYSPLHYSAQ A15F (TDERSWVYSPLHYSFQ)”, the “DMS-derived PSSM value of the single-substitution variant” value came out at 0.0008689.

Turning to “TDERSWVYSPLHYSAQ A15G (TDERSWVYSPLHYSGQ)”, the “DMS-derived PSSM value of the single-substitution variant” value was 0.01352.

Consider “TDERSWVYSPLHYSAQ A15H (TDERSWVYSPLHYSHQ)”, for which the “DMS-derived PSSM value of the single-substitution variant” value is listed as 0.02079.

Consider “TDERSWVYSPLHYSAQ A15I (TDERSWVYSPLHYSIQ)”, for which the “DMS-derived PSSM value of the single-substitution variant” value is on record as 0.009074.

On to “TDERSWVYSPLHYSAQ A15K (TDERSWVYSPLHYSKQ)”, for which the “DMS-derived PSSM value of the single-substitution variant” value is reported as 0.

Regarding “TDERSWVYSPLHYSAQ A15L (TDERSWVYSPLHYSLQ)”, the “DMS-derived PSSM value of the single-substitution variant” value worked out at 0.03914.

Regarding “TDERSWVYSPLHYSAQ A15M (TDERSWVYSPLHYSMQ)”, the “DMS-derived PSSM value of the single-substitution variant” value is recorded as 0.004691.

Regarding “TDERSWVYSPLHYSAQ A15N (TDERSWVYSPLHYSNQ)”, the “DMS-derived PSSM value of the single-substitution variant” value is reported as 0.01181.

In the case of “TDERSWVYSPLHYSAQ A15P (TDERSWVYSPLHYSPQ)”, the “DMS-derived PSSM value of the single-substitution variant” value worked out at 0.07792.

Take “TDERSWVYSPLHYSAQ A15Q (TDERSWVYSPLHYSQQ)”: the “DMS-derived PSSM value of the single-substitution variant” value was 0.263.

As to “TDERSWVYSPLHYSAQ A15R (TDERSWVYSPLHYSRQ)”, the “DMS-derived PSSM value of the single-substitution variant” value is on record as 0.01924.

For “TDERSWVYSPLHYSAQ A15S (TDERSWVYSPLHYSSQ)”, the “DMS-derived PSSM value of the single-substitution variant” value was found to be 0.02779.

Take “TDERSWVYSPLHYSAQ A15T (TDERSWVYSPLHYSTQ)”: the “DMS-derived PSSM value of the single-substitution variant” value was found to be 0.03217.

With “TDERSWVYSPLHYSAQ A15V (TDERSWVYSPLHYSVQ)”, the “DMS-derived PSSM value of the single-substitution variant” value turned out to be 0.005886.

As for “TDERSWVYSPLHYSAQ A15W (TDERSWVYSPLHYSWQ)”, the “DMS-derived PSSM value of the single-substitution variant” value was 0.08214.

As to “TDERSWVYSPLHYSAQ A15Y (TDERSWVYSPLHYSYQ)”, the “DMS-derived PSSM value of the single-substitution variant” value was determined as 0.002752.

With TDERSWVYSPLHYSAQ D2A (TAERSWVYSPLHYSAQ), the “DMS-derived PSSM value of the single-substitution variant” value is 0.3332.

On to TDERSWVYSPLHYSAQ D2D, for which the “DMS-derived PSSM value of the single-substitution variant” value is 0.1736.

As for TDERSWVYSPLHYSAQ D2E (TEERSWVYSPLHYSAQ), the “DMS-derived PSSM value of the single-substitution variant” value was 0.04115.

Regarding TDERSWVYSPLHYSAQ D2F (TFERSWVYSPLHYSAQ), the “DMS-derived PSSM value of the single-substitution variant” value is given as 0.03606.

In the case of TDERSWVYSPLHYSAQ D2G (TGERSWVYSPLHYSAQ), the “DMS-derived PSSM value of the single-substitution variant” value is 0.0564.

Regarding TDERSWVYSPLHYSAQ D2H (THERSWVYSPLHYSAQ), the “DMS-derived PSSM value of the single-substitution variant” value is on record as 0.05615.

For the substance TDERSWVYSPLHYSAQ D2I (TIERSWVYSPLHYSAQ), the “DMS-derived PSSM value of the single-substitution variant” value came to 0.003613.

With TDERSWVYSPLHYSAQ D2K (TKERSWVYSPLHYSAQ), the “DMS-derived PSSM value of the single-substitution variant” value was found to be 0.002514.

TDERSWVYSPLHYSAQ D2L (TLERSWVYSPLHYSAQ): the “DMS-derived PSSM value of the single-substitution variant” value worked out at 0.03742.

TDERSWVYSPLHYSAQ D2M (TMERSWVYSPLHYSAQ): the “DMS-derived PSSM value of the single-substitution variant” value is 0.01172.

Regarding TDERSWVYSPLHYSAQ D2N (TNERSWVYSPLHYSAQ), the “DMS-derived PSSM value of the single-substitution variant” value is reported as 0.02272.

For TDERSWVYSPLHYSAQ D2P (TPERSWVYSPLHYSAQ), the “DMS-derived PSSM value of the single-substitution variant” value is given as 0.02385.

Turning to TDERSWVYSPLHYSAQ D2Q (TQERSWVYSPLHYSAQ), the “DMS-derived PSSM value of the single-substitution variant” value stood at 0.0463.

Consider TDERSWVYSPLHYSAQ D2R (TRERSWVYSPLHYSAQ), for which the “DMS-derived PSSM value of the single-substitution variant” value is recorded as 0.03203.

As to TDERSWVYSPLHYSAQ D2S (TSERSWVYSPLHYSAQ), the “DMS-derived PSSM value of the single-substitution variant” value stood at 0.03884.

In the case of TDERSWVYSPLHYSAQ D2T (TTERSWVYSPLHYSAQ), the “DMS-derived PSSM value of the single-substitution variant” value worked out at 0.01567.

As for TDERSWVYSPLHYSAQ D2V (TVERSWVYSPLHYSAQ), the “DMS-derived PSSM value of the single-substitution variant” value came to 0.03627.

On to TDERSWVYSPLHYSAQ D2W (TWERSWVYSPLHYSAQ), for which the “DMS-derived PSSM value of the single-substitution variant” value is given as 0.01638.

In the case of TDERSWVYSPLHYSAQ D2Y (TYERSWVYSPLHYSAQ), the “DMS-derived PSSM value of the single-substitution variant” value is on record as 0.01615.

Consider TDERSWVYSPLHYSAQ E3A (TDARSWVYSPLHYSAQ), for which the “DMS-derived PSSM value of the single-substitution variant” value is listed as 0.00735.
